Source: BindingDB's records for doi:10.1016/s0960-894x(99)00562-4 (Georgetown University Medical Center, 1999)
Values joined by “and” are separate entries in the source; they are usually repeats but may differ in a detail not shown here. Identical values can stand only once.

Chains of the proteins cited; added tags and fusions are not shown.
UniProt P31645, whole entry: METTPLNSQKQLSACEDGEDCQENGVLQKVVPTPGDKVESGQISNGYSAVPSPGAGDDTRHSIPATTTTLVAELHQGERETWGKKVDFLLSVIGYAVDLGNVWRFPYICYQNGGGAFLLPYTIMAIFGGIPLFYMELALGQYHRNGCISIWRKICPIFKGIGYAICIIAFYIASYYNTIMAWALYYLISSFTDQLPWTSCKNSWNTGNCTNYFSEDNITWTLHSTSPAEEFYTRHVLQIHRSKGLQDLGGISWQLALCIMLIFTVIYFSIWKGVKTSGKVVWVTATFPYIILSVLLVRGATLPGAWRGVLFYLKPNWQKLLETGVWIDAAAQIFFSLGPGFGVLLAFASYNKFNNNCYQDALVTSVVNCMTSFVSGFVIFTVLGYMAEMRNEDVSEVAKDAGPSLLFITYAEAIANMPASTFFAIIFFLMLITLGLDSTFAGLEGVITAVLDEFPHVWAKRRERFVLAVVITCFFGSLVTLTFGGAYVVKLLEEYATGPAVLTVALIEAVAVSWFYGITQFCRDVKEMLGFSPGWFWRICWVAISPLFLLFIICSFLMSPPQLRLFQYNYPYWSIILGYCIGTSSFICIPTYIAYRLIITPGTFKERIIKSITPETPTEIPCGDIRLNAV
UniProt P23975, whole entry: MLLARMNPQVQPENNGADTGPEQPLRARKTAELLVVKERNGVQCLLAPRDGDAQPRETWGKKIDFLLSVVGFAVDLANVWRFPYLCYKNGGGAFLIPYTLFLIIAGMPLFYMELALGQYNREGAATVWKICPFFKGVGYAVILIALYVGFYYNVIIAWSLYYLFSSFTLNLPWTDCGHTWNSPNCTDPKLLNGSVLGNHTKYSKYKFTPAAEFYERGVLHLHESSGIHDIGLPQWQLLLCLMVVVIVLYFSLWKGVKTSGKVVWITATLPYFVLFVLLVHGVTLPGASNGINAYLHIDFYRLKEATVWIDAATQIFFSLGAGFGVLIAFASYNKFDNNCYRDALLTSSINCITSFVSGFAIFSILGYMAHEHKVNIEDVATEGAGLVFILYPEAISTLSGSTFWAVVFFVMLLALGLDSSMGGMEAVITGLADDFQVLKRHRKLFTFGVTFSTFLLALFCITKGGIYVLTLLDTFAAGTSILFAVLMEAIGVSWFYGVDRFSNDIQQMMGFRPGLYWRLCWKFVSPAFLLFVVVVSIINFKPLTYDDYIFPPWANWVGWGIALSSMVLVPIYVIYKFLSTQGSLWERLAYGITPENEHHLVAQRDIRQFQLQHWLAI
UniProt Q01959, whole entry: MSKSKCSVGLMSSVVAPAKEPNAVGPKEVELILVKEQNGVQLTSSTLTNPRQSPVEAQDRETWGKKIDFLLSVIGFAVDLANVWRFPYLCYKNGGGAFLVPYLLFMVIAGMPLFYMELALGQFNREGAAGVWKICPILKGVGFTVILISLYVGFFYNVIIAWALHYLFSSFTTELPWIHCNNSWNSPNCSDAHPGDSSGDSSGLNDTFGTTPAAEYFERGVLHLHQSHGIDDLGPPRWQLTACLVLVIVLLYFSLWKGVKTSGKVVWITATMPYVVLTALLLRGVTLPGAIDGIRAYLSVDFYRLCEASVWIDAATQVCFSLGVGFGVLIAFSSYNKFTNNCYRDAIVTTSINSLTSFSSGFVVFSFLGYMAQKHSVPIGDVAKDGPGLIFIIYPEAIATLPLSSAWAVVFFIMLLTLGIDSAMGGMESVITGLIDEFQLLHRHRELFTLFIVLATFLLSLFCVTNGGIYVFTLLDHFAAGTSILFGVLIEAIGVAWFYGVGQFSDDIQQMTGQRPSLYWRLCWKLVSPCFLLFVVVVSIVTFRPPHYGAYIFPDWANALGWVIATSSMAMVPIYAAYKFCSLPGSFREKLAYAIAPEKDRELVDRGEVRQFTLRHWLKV

Experiments:
[1] = molecular target: T1, Sodium-dependent serotonin transporter (Homo sapiens, UniProt P31645); assay: ChEBML_202305
Description: (§1) Inhibition of monoamine [3H]5-HT reuptake

[2] = molecular target: T2, Sodium-dependent noradrenaline transporter (Homo sapiens, UniProt P23975); assay: ChEBML_143135
Experimental: (§2) Norepinephrine transporter activity was determined by inhibition of monoamine [3H]-NE reuptake

[3] = molecular target: T3, Sodium-dependent dopamine transporter (Homo sapiens, UniProt Q01959); assay: Binding affinity against dopamine transporter (DAT) was evaluated using competitive binding assay and [3H]mazindol as a radioligand
[4] = molecular target: T3, Sodium-dependent dopamine transporter; assay: Inhibition of monoamine [3H]DA reuptake
[5] = molecular target: T1, Sodium-dependent serotonin transporter; assay: as §1
[6] = molecular target: T2, Sodium-dependent noradrenaline transporter; assay: as §2

Molecule `CN1CC[C@H](c2ccc(Cl)cc2)[C@H](CCCN2CC[S][Re]3(=[O])[S]CC[N]3CC2)C1` (stereo not given in full) [piperidine based analogue of cocaine] has a Ki [1] of 243 nM, a Ki [2] of 231 nM and a Ki [3] of 96 nM. The Ki [4] was 193 nM.
With `CN1CC[C@H](c2ccc(Cl)cc2)[C@H](CCCN2CC[S][Re]3(=[O])[S]CC[N]3C(=O)C2)C1` (stereo not given in full) the Ki [1] was 888 nM, the Ki [2] was 2030 nM and the Ki [3] was 43 nM. For the same molecule, the Ki [4] was 110 nM and 112 nM, the Ki [5] was 888 nM and the Ki [6] was 2030 nM.
